Assay results reported in ChEMBL document CHEMBL1127907, “Design of a potent 5-HT4 receptor agonist with nanomolar affinity” (Bioorg Med Chem Lett, 1994).

Chains of the proteins cited; added tags and fusions are not shown. Lines headed by an entry give the natural chain unless they say otherwise; changes in a name come on top.
UniProt O70528: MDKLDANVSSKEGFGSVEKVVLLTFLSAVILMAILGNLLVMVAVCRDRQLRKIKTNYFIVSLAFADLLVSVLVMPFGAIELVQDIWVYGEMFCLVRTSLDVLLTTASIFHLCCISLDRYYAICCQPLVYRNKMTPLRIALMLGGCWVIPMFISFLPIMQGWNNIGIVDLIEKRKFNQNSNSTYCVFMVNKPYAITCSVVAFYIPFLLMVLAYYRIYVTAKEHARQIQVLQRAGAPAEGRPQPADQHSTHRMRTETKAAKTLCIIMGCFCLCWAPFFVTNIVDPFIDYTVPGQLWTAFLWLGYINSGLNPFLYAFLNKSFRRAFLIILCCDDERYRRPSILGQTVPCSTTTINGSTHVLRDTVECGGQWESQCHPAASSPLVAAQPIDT
UniProt Q62758: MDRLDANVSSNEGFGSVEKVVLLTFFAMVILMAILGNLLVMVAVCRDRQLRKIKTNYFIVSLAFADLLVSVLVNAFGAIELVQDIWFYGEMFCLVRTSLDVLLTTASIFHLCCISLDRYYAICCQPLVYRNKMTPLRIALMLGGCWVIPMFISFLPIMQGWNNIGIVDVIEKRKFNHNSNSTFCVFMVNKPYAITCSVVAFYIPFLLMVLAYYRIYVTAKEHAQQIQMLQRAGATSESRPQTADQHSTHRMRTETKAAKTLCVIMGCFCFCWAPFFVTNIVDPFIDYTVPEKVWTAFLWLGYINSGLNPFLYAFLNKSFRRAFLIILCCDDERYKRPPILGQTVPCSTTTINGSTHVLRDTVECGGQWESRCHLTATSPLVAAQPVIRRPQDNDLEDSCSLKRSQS

How the values were obtained:
[1] = molecular target: T1, 5-hydroxytryptamine receptor 4 (Cavia porcellus, UniProt O70528); test: 5-hydroxytryptamine 4 receptor agonist activity as increased response to electrical stimulation in guinea pig ileum
[2] = molecular target: 5-hydroxytryptamine receptor 4 (Rattus norvegicus, UniProt Q62758); test: Binding affinity against 5-hydroxytryptamine 4 receptor using [3H]GR-113808 as radioligand in rat striatum
[3] = molecular target: T1, 5-hydroxytryptamine receptor 4; test: 5-hydroxytryptamine 4 receptor antagonist activity expressed as the concentration which produced a 50% reduction of 5-HT induced contraction in guinea pig ileum

Compound | EC50 [1] [nM] | Ki [2] [nM] | IC50 [3] [nM]
COc1cc(N)c(Cl)cc1C(=O)O[C@@H]1CN2CCC1CC2 | 153 | 91.4 | 450
COc1cc(N)c(Cl)cc1C(=O)O[C@H]1CN2CCC1CC2 | 110 | 488 | 30
